Source: PMC10439158, “The net electrostatic potential and hydration of ABCG2 affect substrate transport” (Nature Communications, 2023)

The chains behind the UniProt entries cited, without tags or fusion partners. Where a name states a change or a piece, a line headed by the entry shows the natural chain unless it says otherwise.
UniProt Q9UNQ0: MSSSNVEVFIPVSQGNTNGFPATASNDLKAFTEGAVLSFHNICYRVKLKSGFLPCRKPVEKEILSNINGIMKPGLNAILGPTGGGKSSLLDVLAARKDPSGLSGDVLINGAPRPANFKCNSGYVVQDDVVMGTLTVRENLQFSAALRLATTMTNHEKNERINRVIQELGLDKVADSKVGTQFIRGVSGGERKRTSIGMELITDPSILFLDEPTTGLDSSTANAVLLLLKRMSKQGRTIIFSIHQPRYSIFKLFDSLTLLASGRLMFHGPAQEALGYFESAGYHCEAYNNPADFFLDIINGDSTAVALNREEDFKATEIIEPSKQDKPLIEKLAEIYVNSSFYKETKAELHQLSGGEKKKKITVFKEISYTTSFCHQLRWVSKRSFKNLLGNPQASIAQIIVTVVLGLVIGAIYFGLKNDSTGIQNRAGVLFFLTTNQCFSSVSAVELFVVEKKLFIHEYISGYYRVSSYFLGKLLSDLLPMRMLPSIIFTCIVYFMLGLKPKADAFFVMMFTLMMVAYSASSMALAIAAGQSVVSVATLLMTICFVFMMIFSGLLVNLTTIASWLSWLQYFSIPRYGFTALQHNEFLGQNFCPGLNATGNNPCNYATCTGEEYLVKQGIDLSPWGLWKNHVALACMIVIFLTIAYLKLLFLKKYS

Target: ABCG2 (Homo sapiens, UniProt Q9UNQ0)
Experiment: cell-based
Design: full-length ABCG2-WT in MEF cells; species or system Abcg2-KO MEFs expressing human ABCG2-WT; Inhibition of ABCG2-mediated Hoechst 33342 efflux; intracellular Hoechst 33342 fluorescence accumulation, normalized to vector control
Settings: 0.5 uM Hoechst 33342 substrate, 2 h, 37 °C; read-out: IC50 for transport inhibition in WT

- IC50: 510 nM
SMILES: COc1cc2ncnc(Nc3ccc(F)c(Cl)c3)c2cc1OCCCN1CCOCC1 [gefitinib]
